Publication PMC10798293 (Journal of Enzyme Inhibition and Medicinal Chemistry, 2024)
pIC50, pKd, pKi: −log10 of the molar value.

Columns and labels:
[1] = biological target: T1, SaSDH (Staphylococcus aureus shikimate dehydrogenase) (Staphylococcus aureus, UniProt Q5HFG5); assay: SaSDH enzyme inhibition; type: biochemical
T1 sequence (Q5HFG5 1-268): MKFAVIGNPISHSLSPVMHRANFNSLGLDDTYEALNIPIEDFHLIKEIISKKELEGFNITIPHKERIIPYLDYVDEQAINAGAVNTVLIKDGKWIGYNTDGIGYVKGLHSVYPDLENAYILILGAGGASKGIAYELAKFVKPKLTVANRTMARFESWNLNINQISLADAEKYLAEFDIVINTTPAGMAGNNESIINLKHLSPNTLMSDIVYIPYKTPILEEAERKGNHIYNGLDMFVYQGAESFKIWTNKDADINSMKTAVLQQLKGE

SaSDH = biological target: T2, SaSDH (Staphylococcus aureus, UniProt Q5HFG5); assay: Isothermal titration calorimetry; type: binding; conditions: ITC, 100 mM Tris-HCl pH 9.0, 25 °C
T2 sequence (Q5HFG5 1-268): T1 sequence (Q5HFG5 1-268)

Rhodiosin
pIC50 ([1]; 1 mM NADP, 1 mM SHK, 1.54 ng SaSDH, pH 9.0, 37 °C, 30 min): > 4.00 | pKi ([1]; Lineweaver-Burke plots, SHK varied 0.25-4 mM): 4.13 | pKd (SaSDH): 4.78
